Test results taken from PMC2801547 (Journal of medicinal chemistry, 2009).

Assays:
[1] = for stability in DMSO: two weeks at 22°C
[2] = tested on: SC35 and SAP155 in HeLa cervical carcinoma cells; conditions: 10 µM, 4 hours
[3] = NOD/SCID mice
[4] = tested on: JeKo-1 mantle cell lymphoma tumors; conditions: mouse, in vivo
[5] = tested on: mRNA splicing activity of a HeLa nuclear extract

Row | Structure (SMILES) | stability in DMSO [1] | stability in dilute aqueous acid [1] | solubility relative to cyclohexane derivative 5 (in PBS) [fold] | localization of splicing factors SC35 and SAP155 [2] | solubility in water or aqueous buffer (water or aqueous buffer) | blood chemistries (diagnostic chemistry panel) ([3]; 5-50 mg/kg daily for five days, IV and IP, day 5) | organ histologies at total necropsy ([3]; MTD study treatment groups) | fatalities or weight loss in efficacy study [4] | tumor volumes compared to vehicle-treated mice [4] | inhibition of mRNA splicing in cell-free extract [5]
1 | CC(=O)O[C@@H](C)/C=C\C(=O)N[C@H]1CC[C@@H](C/C=C(C)/C=C/[C@@H]2C[C@]3(CO3)CC(C)(C)O2)CC1 [compound 3a] | no detectable decomposition | rapidly degraded | – | – | – | – | – | – | – | –
2 | CC(/C=C/[C@@H]1C[C@]2(CO2)CC(C)(C)O1)=C\C[C@H]1OC[C@@H](NC(=O)/C=C\[C@H](C)OC(=O)C(C)C)CO1 [compound 26, (S,Z)-5-((2R,5R)-2-((2E,4E)-5-((3R,5S)-7,7-dimethyl-1,6-dioxaspiro[2.5]octan-5-yl)-3-methylpenta-2,4-dienyl)-1,3-dioxan-5-ylamino)-5-oxopent-3-en-2-yl isobutyrate] | – | – | > 50 | caused the splicing factors to form large aggregates | – | – | – | – | – | –
3 | CC(/C=C/[C@@H]1C[C@]2(CO2)CC(C)(C)O1)=C\C[C@H]1CC[C@@H](NC(=O)/C=C\[C@H](C)OC(=O)C(C)C)CC1 [compound 5, (S,Z)-5-((1R,4R)-4-((2E,4E)-5-((3R,5S)-7,7-dimethyl-1,6-dioxaspiro[2.5]octan-5-yl)-3-methylpenta-2,4-dienyl)cyclohexylamino)-5-oxopent-3-en-2-yl isobutyrate] | no detectable decomposition | rapidly degraded | – | – | limited solubility | no abnormalities of the blood chemistries | no evidence for significant toxicities | No fatalities or significant weight loss | statistically significant decreases in tumor volumes | inhibit the mRNA splicing activity of a HeLa nuclear extract
